Data on one molecule can be found in US20190231757A1, “COMBINATION OF SPLEEN TYROSINE KINASE INHIBITORS AND OTHER THERAPEUTIC AGENTS” (Takeda Pharmaceutical Company Limited, priority 2016, published 2019).

A short description of this data set: Body weight and tolerability, Ly19 bendamustine study (Example 4).

Consider `Cn1c(CCCC(=O)O)nc2cc(N(CCCl)CCCl)ccc21` [bendamustine], for which, under “Day 0, bendamustine 2.0 mg/kg IV BIW x2, alone or with Compound A 60 mg/kg PO QD x14”, the “animal body weight (g), Day 0” value was 20.4 g. The “animal body weight (g), Day 3” value (Day 3, bendamustine 2.0 mg/kg, alone or with Compound A 60 mg/kg) worked out at 20.8 g. The “animal body weight (g), Day 7” value (Compound A 60 mg/kg, bendamustine 1.0 mg/kg, alone or combined) stood at 20.4 g and the “animal body weight (g), Day 7” value (bendamustine 2.0 mg/kg, alone or with Compound A 60 mg/kg) was 21.1 g.
